Yeast UUG start: modulators of yeast start codon fidelity, primary screen, whole organism, S. cerevisiae, single point, plate reader | AID 602363, 2012 | S. cerevisiae UUG-firefly luciferase reporter, luminescence/redox ratio | activity score, % at 18.7 µM | hit rate 0.13% among 350,000;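 active = replicate mean at a twofold rise or more, about +100% in these data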;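 also: firefly luciferase made from a UUG start codon reports start codon fidelity; reporter light over untreated wells divided by growth signal over untreated wells; some hits fall short of that in this replicate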
FN deposit inh: fibronectin deposition inhibition; AH1F fibroblasts, Alexa488-fibronectin deposition fluorescence, overnight; inhibition, % at 12.6 µM; actives 0.086% (n = 350,000);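 active means mean inhibition across replicates of 30% or more, regardless of how many single replicates reach that level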;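 further: positive control wells lacked labelled fibronectin entirely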
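Assay system: AH1F fibroblasts assembling fluorescent fibronectin matrix; Amount: 10000 AH1F cells per well; Buffer or medium: DMEM, 2% serum; Probe or stimulus: Alexa488-fibronectin, 24 nM final in well; Doses: single compound dose, delivered by pin transfer; Incubation: 1 h adhesion, overnight exposure; Measured by: fluorescence 485/525 nm; Read-out: fibronectin deposition inhibition.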
PGC1a acetyl inh: modulators of PGC1a acetylation | U2OS PGC1a acetylation, AlphaScreen anti-acetyl-lysine; with virally co-expressed GCN5 acetyltransferase | inhibition, % at 15.6 µM | actives 0.17% (n = 350,000) | AID 651687;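 active means every replicate shows inhibition of at least 40%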;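 further: 0% = neutral control wells and 100% = positive control wells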
C2C12 statin: suppression of simvastatin myotoxicity | rescue of ATP level, % at 7.49 µM | C2C12 myotubes + simvastatin, ATP luminescence, 48 h; scaled: DMSO 0, geranylgeraniol control 100 | AID 602340 | actives 0.78% (n = 330,000);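 active means mean ATP rescue above about 67%, or every replicate alone reaching that limit, limit read from the data, passing the limit was not always enough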;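 further: myotubes were challenged with 10 µM simvastatin during compound exposure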
iPSC survival up: hiPSC single-cell survival enhancement. ATPlite luminescence; 100% = ROCK inhibitor wells, 0% = DMSO. survival enhancement, % at 20 µM. actives 0.044% (n = 360,000); in the data active means survival enhancement above about 18%;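 further: cells exposed to compounds for 16 hours before the ATP read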
Active calls of the source: *; . = no result. In the library only some 0.91% were active in any assay of this set; here they are far more common.

SMILES | Yeast UUG start | FN deposit inh | PGC1a acetyl inh | C2C12 statin | iPSC survival up
CC(=O)Nc1ccc2c(c1)C(=O)N(C)[C@H]1CC[C@@H](CC(=O)NC3CCCCC3)O[C@@H]1CO2 | -14 | -2 | 2 | 14 | .
CC(C)C[C@@H](CNCC(=O)[C@H](Cc1c[nH]c2ccccc12)NC(=O)c1[nH]cnc1C(=O)N[C@@H](C)CN)NC(=O)c1nc[nH]c1C(=O)N[C@@H](Cc1ccccc1)C(=O)O | 131* | -2 | 9 | -6 | 1
CC(C)C[C@H](NC(=O)c1[nH]cnc1C(=O)N[C@@H](Cc1ccccc1)C(=O)OCc1ccccc1)C(=O)OCc1ccccc1 | -5 | 0 | 17 | 137* | 0
CC(C)C[C@@H](CNCC(=O)[C@H](C)NC(=O)c1[nH]cnc1C(=O)N[C@@H](C)CN)NC(=O)c1nc[nH]c1C(=O)N[C@@H](Cc1ccccc1)C(=O)O | 3 | 4 | . | 5 | 3
C[C@@H]1CN([C@H](C)CO)C(=O)c2cc(NC(=O)CCC(F)(F)F)ccc2O[C@H]1CN(C)Cc1ccc(C(=O)O)cc1 | -20 | . | 2 | 3 | .
CCCN1[C@@H]2Cn3c(ccc(/C=C/c4ccccc4)c3=O)[C@H]1[C@@H](C(=O)NCC)[C@@H]2CO | . | . | . | 18 | .
CCSc1cc(C)nc2c(-c3ccc(Cl)cc3)c(C)nn12 | -11 | . | -1 | 93* | 0
C[C@@H]1CN([C@@H](C)CO)C(=O)c2c(c3ccccc3n2C)-c2ccccc2CO[C@@H]1CN(C)S(=O)(=O)c1ccccc1C#N | . | 2 | -5 | 19 | .
NC(=O)C1CCN(C(=O)c2cnn(-c3ccccc3)c2NC(=O)c2ccco2)CC1 | -4 | . | 9 | 98* | 3
NC(=O)C1CCN(C(=O)c2cnn(-c3ccccc3)c2NC(=O)c2cccc(F)c2)CC1 | -2 | 0 | -4 | -4 | 0
Cc1ccc(-n2ncc(C(=O)N3CCc4ccccc4C3)c2NC(=O)c2ccco2)cc1C | . | -3 | 10 | 77* | 0
Nc1nonc1-c1nc2ccccc2n1Cc1ccc(F)cc1Cl | -19 | 2 | -27 | 116* | -3
Fc1ccc(Cn2c(-c3cscn3)nc3ccccc32)c(Cl)c1 | -17 | 2 | -18 | 47 | -2
COc1ccccc1NC(=O)N[C@@H]1CC[C@H](CCn2cc(-c3ccccc3)nn2)O[C@@H]1CO | -1 | . | -3 | -9 | .
COc1ccc(C=O)cc1CSc1nnc(COc2cccc3cccnc23)o1 | -11 | . | 8 | 138* | -2
COc1ccc(N2CCN(C(=O)CSc3nnc(COc4cccc5cccnc45)o3)CC2)cc1 | -7 | . | 7 | 1 | -1
CC(C)CC1(C)NC(=O)NC1=O (stereo unspecified) | -9 | . | -9 | 117* | 3
O=C1N(CCS(=O)(=O)c2ccccc2)Cc2ccccc2C[C@@]12N=C(c1ccc(OCCCO)cc1)O[C@H]2c1ccccc1 | 11 | . | -15 | . | .
CC(C)(C)c1ccc(CCC2OCC(C[N+]3(C)CCOCC3)O2)cc1 (stereo unspecified) | -7 | -3 | 73* | . | 0
CCNC(=O)[C@H]1[C@H](CO)[C@H]2Cn3c(ccc(-c4ccncc4)c3=O)[C@H]2N1Cc1ccc2c(c1)OCO2 | . | . | . | 1 | .
CC1Cc2nc(SCC(N)=O)n(C)c(=O)c2S1 (stereo unspecified) | 8 | 9 | 14 | 135* | -2
COc1ccc(C(=O)N/C(=C/c2cccs2)C(=O)NC(C)(C)C)cc1OC | -5 | -5 | 67* | 15 | 0
c1ccc(C2=Nn3c(nnc3-c3ccncc3)SC2)cc1 | 2 | 3 | 28 | -10 | -3
Cc1cccc(-c2nnc3n2N=C(c2ccccc2)CS3)c1 | -16 | active | . | 3 | 6
c1ccc(-c2cc(-c3nnc4n3N=C(c3ccc5ccccc5c3)CS4)[nH]n2)cc1 | 2 | . | -19 | 80* | 1
CCCNC(=O)N1CC(=O)N2[C@H](C1)[C@H](c1ccc(C#Cc3cccc(OC)c3)cc1)[C@@H]2CO | . | . | 4 | . | .
COc1ccccc1CCn1cnc(-c2ccc(OC)c(OC)c2)c1CC(C)C | . | -5 | . | . | .
CC1=CC(C)(C)N=C(Nc2nc(C)c3cc(C)cc(C)c3n2)N1 | -6 | -9 | 8 | -13 | 0
CC1=CC(C)(C)N=C(NC#N)N1 | -12 | . | 5 | 104* | -1
CC1CC(c2ccccc2)n2nc(N3C(=O)c4ccccc4C3=O)nc2N1 (stereo unspecified) | -29 | . | -7 | 101* | 4
CC(C)(Oc1ccc(Cl)cc1)C(=O)NCc1ccco1 | -23 | . | 2 | 123* | -5
CC(C)(Oc1ccc(Cl)cc1)C(=O)NCc1ccncc1 | -17 | 3 | 8 | 3 | 0
CCOc1[nH]n(-c2ccccc2)c(=O)c1C=Nc1ccccc1 | -4 | -6 | . | 4 | 0
CCOc1[nH]n(-c2ccccc2)c(=O)c1C=Nc1ccc(Cl)cc1 | -7 | 0 | 3 | 120* | 0
O=S1(=O)N[C@@H](Cc2ccccc2)COc2cc(NC3CC3)ccc21 | . | -1 | . | . | .
CCN(CC)S(=O)(=O)c1ccc(-n2c(=O)c(C(C)C)c(C)n2C)cc1 | -20 | 3 | -3 | 87* | 0
Cc1c(C(C)C)c(=O)n(-c2ccc(S(=O)(=O)NC(C)C)cc2)n1C | -14 | -5 | -23 | -2 | -1
N#C/C(=C1\CCCN1)c1ccc2ccccc2n1 | -15 | . | -18 | 77* | 7
O=C(CCC1COc2ccccc2O1)Nc1ccccn1 (stereo unspecified) | -8 | . | 1 | 155* | 0
O=C(CC1COc2ccccc2O1)Nc1ccccn1 (stereo unspecified) | . | . | -11 | 6 | 2
COc1cccc(CN2CCN(C(=O)c3ccc(-c4ccccc4)cc3)CC2)c1OC | . | 32* | . | . | 3
COc1ccc(C(=O)N2CCN(C(=O)c3cc(OC)c(OC)c(OC)c3)CC2)cc1 | -12 | . | 6 | 108* | 1
Cc1noc(C)c1NC(=O)Nc1ccc2c(c1)CC(=O)N([C@@H](C)CO)C[C@@H](C)[C@H](CN(C)CC1CC1)O2 | -3 | 1 | 11 | -17 | .
C[C@H](CO)N1C[C@H](C)[C@H](CN(C)S(=O)(=O)c2ccc(Cl)cc2)Oc2ccc(NS(=O)(=O)c3ccc(Cl)cc3)cc2C1=O | 7 | . | 1 | 58 | .
Cc1nn(-c2cc(N3CCCCC3)ccc2[N+](=O)[O-])c(=O)c2ccccc12 | . | . | . | . | -1

Already shown: an excerpt of the list.
SMILES | Yeast UUG start | FN deposit inh | PGC1a acetyl inh | C2C12 statin | iPSC survival up
CC(C)(Oc1ccc(Cl)cc1)C(=O)NCc1ccco1 | -23 | . | 2 | 123* | -5
CC(C)(Oc1ccc(Cl)cc1)C(=O)NCc1ccncc1 | -17 | 3 | 8 | 3 | 0
CCOc1[nH]n(-c2ccccc2)c(=O)c1C=Nc1ccccc1 | -4 | -6 | . | 4 | 0
CCOc1[nH]n(-c2ccccc2)c(=O)c1C=Nc1ccc(Cl)cc1 | -7 | 0 | 3 | 120* | 0
O=S1(=O)N[C@@H](Cc2ccccc2)COc2cc(NC3CC3)ccc21 | . | -1 | . | . | .
CCN(CC)S(=O)(=O)c1ccc(-n2c(=O)c(C(C)C)c(C)n2C)cc1 | -20 | 3 | -3 | 87* | 0

The listing continues:
SMILES | Yeast UUG start | FN deposit inh | PGC1a acetyl inh | C2C12 statin | iPSC survival up
CN1CCN(c2ccc([N+](=O)[O-])c(-n3nc(-c4ccccc4)c4ccccc4c3=O)c2)CC1 | -13 | 0 | 38 | 80* | 1
OCCN1CCN(c2ncnc3c2sc2nc(N4CCOCC4)c4c(c23)CCC4)CC1 | -9 | . | -37 | -1 | 7
OCCN(CCO)c1ncnc2c1sc1nc(N3CCOCC3)c3c(c12)CCCC3 | -11 | 18* | -7 | -17 | 7
CC(=O)N1CCN(S(=O)(=O)c2cccc(C(=O)NCc3ccc(F)cc3)c2)CC1 | -7 | -5 | -5 | 77* | -2

Screening data: PubChem BioAssay, several laboratories
